Data reported in patent US20080058265.

With thrombin the “activation rate (rate of APC generation, amidolytic activity assay)” value (wild-type protein C) was “The activation rate was 0.002 nM and 0.16 nM APC/nM thrombin for wild-type and mutant protein C, respectively”, the “activation rate (rate of APC generation, amidolytic activity assay)” value (Cys-67-82 protein C) was “The activation rate was 0.002 nM and 0.16 nM APC/nM thrombin for wild-type and mutant protein C, respectively” and the “fold improvement of activation by thrombin relative to wild-type protein C” value (Cys-67-82 protein C) was “improved 60-80-fold”.
